Source: US20220251158A1, “INTERMEDIATE FILAMENT-DERIVED PEPTIDES AND THEIR USES” (UNIVERSITAT DE LLEIDA, priority 2019, published 2022)

Assays:
[1] = test system: human PBMC (peripheral blood mononuclear cells); assay: Pro-inflammatory cytokine production by human PBMC; assay type: cell-based; conditions: for secretion of pro-inflammatory cytokines: 24 or 48 hours
Protocol: FIG. 9—Concentrations of different cytokines produced by human PBMC cells cultured with peptides. 4×10^5 cells were incubated per well with peptide 72, or DIF-P, or DIF-P3K, or DIF-P8R, or Staurosporine, or Nigericine or without stimulus for 24 hours or 48 hours before collecting the supernatant. In the case of Staurosporine and Nigericine the production of cytokines was only analysed after 24 hours (*=p<0.05).
Culture supernatants from mice proliferation assays were collected and IL-2, IL-4, IL-6, IFN-γ, IL-10, TNF-α and IL-17 cytokine amounts analysed by flow cytometry using CBA kit (560485, BD). For human cell cultures, the Legendplex Kit was used (BioLegend, 740502), which studied cytokines IL-12p70, TNF-α, IL-6, IL-4, IL-10, IL-1β, arginase, IL-1st, IL-12p40, IL-23, IFN-γ and IP-10.
The cytolytic activity (induction of apoptosis and/or pyroptosis) and production of pro-inflammatory cytokines in cell cultures have been analysed for peptides DIF-P, DIF-P3K and DIF-P8R, using peptide 72 as a negative control, in cultures of human PBMC (peripheral blood mononuclear cells). The induction of apoptosis and/or pyroptosis, and cell death was detected by flow cytometry analysis, determining the expression (presence) of annexin V in the cell membrane, and the staining of the cell nucleus with propidium iodide, respectively (FIG. 6). […] The production of pro-inflammatory cytokines (IL-6, IL-1β, TNF-α, IL-12p40, IL-23, IP-10, IFN-γ) is determined after incubation with the stimulus after 24 or 48 hours (FIG. 9).

NALM-6 cells [2] = assay: Cleaved Caspase-3 expression in NALM-6 cells; assay type: cell-based, human; conditions: 55 μM
Protocol: FIG. 5—Representative images of the expression of cleaved Caspase-3 in NALM-6 cells cultured with different peptides. […] The line in bold is equivalent to the expression of the control cells without peptide, and clearer curves are equivalent to cells incubated with different peptides (n=3).
(§1) HL-60, Jurkat and NALM-6 cells were grown and maintained in complete culture medium in a humidified 5% CO2, atmosphere at 37° C. […] Human splenocytes from buffy coats were collected by density gradient using Histopaque 1077 (Histopaque®-1077, 10771 sigma) as described elsewhere (Johnston, L., Harding, S. A. & La Flamme, A. C. Comparing methods for ex vivo characterization of human monocyte phenotypes and in vitro responses. Immunobiology 2015, 220, 1305-1310). Cells from bone marrow were obtained disrupting femur and tibia as explained elsewhere too (Liu, X. & Quan, N. Immune Cell Isolation from Mouse Femur Bone Marrow. Bio-protocol 5, 2015). Monocytes and neutrophils from bone marrow were purified using the Stemcell kits (19861 and 19762 subsequently) and the kit protocol was followed. Cells were incubated in 96-well tissue culture plates (4×10^5/well for primary cells and 1×10^5 for cells lines) at 37° C. in 5% CO2 in complete culture medium using 55 μM of different Peripherin peptides. For proliferation assays, cells were labelled with CFSE (C34554, life technologies). After 1 hour, 24 hours or 48 hours, cells were analysed by flow cytometry and culture supernatants stored at −80° C. until use.
After 1 hour, 24 hours or 48 hours, apoptosis was measured by CFBlue Annexin V Apoptosis Detection Kit with PI (ANXVKCFB-100T, Immunostep), following kit protocol. For cleaved caspasa-3 intracellular staining, mononuclear cells were permeabilised following the manufacturer's instructions of the FoxP3 Staining Buffer Set (00-5523-00, eBioscience) and the cleaved caspasa-3-Pacific Blue (8788S, Cell Signalling) was used for staining. Cell suspensions were analysed by flow cytometry using FACS CANTO II instrumentation (BD, Biosciences, San Jose, Calif.) and Flowjo (version 8.7) software.

[3] = test system: NOD.RAG-2−/− mouse bone marrow cells; assay: Cytokine release by NOD.RAG-2−/− mouse bone marrow cells; assay type: cell-based; conditions: NOD.RAG-2−/− bone marrow cells, 24 h and 48 h
Protocol: FIG. 11—Concentrations of different cytokines produced by NOD.RAG2−/− cells from bone marrow cultured with peptides. 4×10^5 cells were incubated per well with peptide 72, or DIF-P, or DIF-P3K, or DIF-P8R, or without stimulus for 24 hours or 48 hours before collecting the supernatant (*=p<0.05).
as §1, with “Monocytes and neutrophils from bone marrow were purified using the Stemcell kits (19861 and 19762 subsequently) and the kit protocol was followed. Cells were incubated in 96-well tissue culture plates (4×10^5/well for primary cells and 1×10^5 for cells lines) at 37° C. in 5% CO2 in complete culture medium using 55 μM of different Peripherin peptides. For proliferation assays, cells were labelled with CFSE (C34554, life technologies).” left out
Culture supernatants from mice proliferation assays were collected and IL-2, IL-4, IL-6, IFN-γ, IL-10, TNF-α and IL-17 cytokine amounts analysed by flow cytometry using CBA kit (560485, BD). […]

NALM-6 cells [4] = assay: Mortality of NALM-6 cells (Annexin V/PI flow cytometry); assay type: cell-based, human; conditions: 55 μM
Protocol: FIG. 21—Representative dot plots of apoptosis assay of NALM-6 cells after culturing them with different peptides. Annexin V and PI positive cells were analysed after culturing 1×10^5 cells for 1 hour, 24 hours or 48 hours with peptide 72, or DIF-P, or DIF-P3K, or DIF-P8R or without stimulus (n=4).
as §1
For cell death and apoptosis analysis, 400.000 of primary cells or 100.000 of cell line cells were incubated in 96-well plates in 200 μL of complete culture medium for 24 h at 37° C. and 5% CO2 in the absence or presence of 55 μM of different peptides. After 1 hour, 24 hours or 48 hours, apoptosis was measured by CFBlue Annexin V Apoptosis Detection Kit with PI (ANXVKCFB-100T, Immunostep), following kit protocol. […] Cell suspensions were analysed by flow cytometry using FACS CANTO II instrumentation (BD, Biosciences, San Jose, Calif.) and Flowjo (version 8.7) software. […]

Structure (SMILES)	secretion of pro-inflammatory cytokines [1]	production of pro-inflammatory cytokines (comparison between peptides) ([1]; leukocytes that remain alive at the end of the culture)	cell death determined by cleaved Caspase-3 expression (NALM-6 cells [2]; 1 hour) [%]	cell death determined by cleaved Caspase-3 expression (NALM-6 cells [2]; 24 hours) [%]	release of inflammatory cytokines IL-6 and IL-4 [3]	mortality percentage (NALM-6 cells [4]; 1 h) [%]	mortality percentage (NALM-6 cells [4]; 24 h) [%]	mortality percentage (NALM-6 cells [4]; 48 h) [%]
CC[C@H](C)[C@H](NC(=O)[C@H](CCC(=O)O)NC(=O)[C@@H](NC(=O)[C@H](CC(=O)O)NC(=O)[C@H](CC(C)C)NC(=O)[C@H](C)NC(=O)[C@H](CCSC)NC(=O)[C@H](CCCCN)NC(=O)[C@@H](NC(=O)[C@H](CC(N)=O)NC(=O)[C@H](CC(C)C)NC(=O)[C@@H](N)CC(C)C)C(C)C)[C@@H](C)CC)C(=O)N[C@@H](CCCCN)C(=O)N[C@@H](CCCCN)C(=O)N[C@@H](CCCCN)C(=O)O [DIF-P3K, LLNVKMALDIEIKKK]	induce secretion of pro-inflammatory cytokines	least efficient in inducing cytokine secretion	22	40	similarly efficient			
CC[C@H](C)[C@H](NC(=O)[C@H](CCC(=O)O)NC(=O)[C@@H](NC(=O)[C@H](CC(=O)O)NC(=O)[C@H](CC(C)C)NC(=O)[C@H](C)NC(=O)[C@H](CCSC)NC(=O)[C@H](CCCCN)NC(=O)[C@@H](NC(=O)[C@H](CC(N)=O)NC(=O)[C@H](CC(C)C)NC(=O)[C@@H](N)CC(C)C)C(C)C)[C@@H](C)CC)C(=O)N[C@@H](CCCNC(=N)N)C(=O)N[C@@H](CCCNC(=N)N)C(=O)N[C@@H](CCCNC(=N)N)C(=O)N[C@@H](CCCNC(=N)N)C(=O)N[C@@H](CCCNC(=N)N)C(=O)N[C@@H](CCCNC(=N)N)C(=O)N[C@@H](CCCNC(=N)N)C(=O)N[C@@H](CCCNC(=N)N)C(=O)O [DIF-P8R]	induce secretion of pro-inflammatory cytokines		55	85	similarly efficient	85	81	80
